Results published in patent US5547975A, “Benzopyranopyrazolyl derivatives for the treatment of inflammation” (priority 1994, dated 1996).

Test system: carrageenan foot pad edema (rat paw edema)
Assay: Rat Carrageenan Foot Pad Edema Test
Format: in vivo, rat (male Sprague-Dawley)
Details: oral, @ 30 mg/ka body weight, 3 hours after carrageenan injection

COc1ccc2c(c1F)CSc1c(C(F)(F)F)nn(-c3ccc(S(C)(=O)=O)cc3)c1-2 [Example 2, 1,5-Dihydro-6-fluoro-7-methoxy-1-[(4-methylsulfonyl)phenyl]-3-(trifluoromethyl)-[2]benzothiopyrano[4,3-c]pyrazole]
RAT PAW EDEMA % Inhibition: 28%
